The assay has as its target T1, human calcitonin CGRP1 (CGRP1) membrane (human, UniProt Q16602 23-461; O60894 27-148).
T1 construct: whole, on cells; Purchased membrane preparation (Perkin Elmer), homogenised in assay buffer; the receptor stood in membranes, not intact cells; also called CGRP receptors; CGRP receptor
Nature of the assay: displacement of 0.24 nM [125I]-CGRP from human CGRP1 receptor membranes, filtration; Ki by Cheng-Prusoff; mean ± SD. On the procedure: CGRP1 membrane was homogenized in the assay buffer (50 mM Tris-HCl pH 7.4, 5 mM MgCl₂, 0.5% BSA, 0.05% Tween20). […] After 1 h of incubation, at room temperature, samples were filtered, using a Tomtec cell harvester, through glass fiber filters that had been presoaked in 0.05% polyethyleneimine and washed with the cold Tris buffer (50 mM Tris-HCl pH7.4). Filters were counted on a betaplate reader (Wallac).

By UniProt entry, the sequences of proteins in these tests, tags left out. Residues count along the entry.
UniProt Q16602, 23-461, chain 1 of 2: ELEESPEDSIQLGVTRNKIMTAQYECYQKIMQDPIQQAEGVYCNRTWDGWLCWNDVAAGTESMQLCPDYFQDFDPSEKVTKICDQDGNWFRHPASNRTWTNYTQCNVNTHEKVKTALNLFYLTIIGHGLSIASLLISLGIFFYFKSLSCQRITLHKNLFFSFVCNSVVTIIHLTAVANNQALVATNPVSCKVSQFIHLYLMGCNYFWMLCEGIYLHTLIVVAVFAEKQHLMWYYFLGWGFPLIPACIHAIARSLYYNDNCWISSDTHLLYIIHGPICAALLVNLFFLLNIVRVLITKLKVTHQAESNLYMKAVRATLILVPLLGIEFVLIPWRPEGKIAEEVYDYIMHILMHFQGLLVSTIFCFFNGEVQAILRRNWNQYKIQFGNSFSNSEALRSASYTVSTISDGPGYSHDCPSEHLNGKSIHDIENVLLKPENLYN
human calcitonin CGRP1 (CGRP1) membrane, UniProt O60894, 27-148, chain 2 of 2: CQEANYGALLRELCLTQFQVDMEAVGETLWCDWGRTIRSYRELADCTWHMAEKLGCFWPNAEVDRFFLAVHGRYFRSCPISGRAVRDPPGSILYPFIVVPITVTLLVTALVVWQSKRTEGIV

B1: human CGRP 8-37 (peptide)
peptide: VTHRLAGLLSRSGGMVKSNFVPTNVGSKAF
modifications: C-terminal amide
notes: also called conventional CGRP 8-37
Take B1: the inhibition constant (Ki) is 59.8 nM.

(Values after US20160347810A1 (AFASCI, published 2016).)
